According to US9282743B2, “Chemical compounds” (Syngenta Participations AG, priority 2011, dated 2016):

What was measured:
Assay in all cases: whole plant or invertebrate
[1] = test system: Tetranychus urticae (two-spotted spider mite); conditions: foliar, 192 h, read-out: activity (egg, larval and adult mortality)
[2] = test system: Myzus persicae (green peach aphid); conditions: soil, 168 h, read-out: activity (mortality)
[3] = test system: Myzus persicae (green peach aphid); conditions: foliar, 144 h, read-out: activity (mortality)
[4] = test system: Nilaparvata lugens (brown rice planthopper); conditions: in Oryza sativa, read-out: activity (mortality, growth regulation, effects on F1 generation)
[5] = test system: Myzus persicae (green peach aphid); conditions: in Brassica oleracea, 144 h, read-out: activity against Myzus persicae (mortality)
[6] = test system: Aphis craccivora (cowpea aphid); conditions: in Phaseolus vulgaris, 120 h, read-out: activity (mortality)
[7] = test system: Myzus persicae (green peach aphid); conditions: 144 h, read-out: activity (mortality)
[8] = test system: Thrips tabaci (onion thrips); conditions: foliar, 144 h, read-out: activity (mortality)

Structure (SMILES)	mortality at 400 ppm [1]	mortality at 25 ppm [2]	mortality at 400 ppm [3]	mortality at 200 ppm [4]	mortality at 200 ppm [5]	mortality at 200 ppm [6]	mortality at 400 ppm [7]	mortality at 400 ppm [8]
CON1CCN2C(=O)C(c3c(C)cc(Br)cc3C)C(=O)N2CC1 [Compound P2.9]	> 80%	> 80%	> 80%	> 80%	–	–	–	–
CCOC(=O)Oc1c(-c2c(C)cc(C)cc2OC)c(=O)n2n1CCN(OC)CC2 [Compound P1.9]	–	> 80%	> 80%	> 80%	≥ 80%	> 80%	–	–
C=Cc1cc(C)cc(C)c1-c1c(OC(=O)OCC)n2n(c1=O)CCN(OC)CC2 [Compound P1.13]	–	–	> 80%	–	≥ 80%	–	–	–
CCOC(=O)Oc1c(-c2c(CC)cc(C)cc2CC)c(=O)n2n1CCN(OC)CC2 [Compound P1.18]	> 80%	–	–	–	–	–	> 80%	–
CON1CCN2C(=O)C(c3c(C)cc(C)cc3C)C(=O)N2CC1 [Compound P2.1, 3-Methoxy-8-(2,4,6-trimethyl-phenyl)-tetrahydro-pyrazolo[1,2-a][1,2,5]triazepine-7,9-dione]	> 80%	> 80%	> 80%	> 80%	≥ 80%	> 80%	> 80%	> 80%
CCOC(=O)Oc1c(-c2c(C)cc(C)cc2CC)c(=O)n2n1CCN(OC)CC2 [Compound P1.14]	> 80%	–	> 80%	–	≥ 80%	–	> 80%	–
COc1cc(C)cc(C)c1C1C(=O)N2CCN(OC)CCN2C1=O [Compound P2.12]	> 80%	–	> 80%	–	≥ 80%	–	–	–
CCOC(=O)Oc1c(-c2cc(-c3ccc(Cl)cc3)ccc2C)c(=O)n2n1CCN(OC)CC2 [Compound P1.7]	> 80%	–	> 80%	–	–	–	–	–
C=Cc1cc(C)cc(C)c1C1C(=O)N2CCN(OC)CCN2C1=O [Compound P2.13]	–	–	> 80%	–	–	–	–	–
CCOC(=O)Oc1c(-c2c(C)cc(Cl)cc2OC)c(=O)n2n1CCN(OC)CC2 [Compound P1.6]	> 80%	–	> 80%	–	–	–	> 80%	–
CCOC(=O)Oc1c(-c2c(C)cc(C)cc2Br)c(=O)n2n1CCN(OC)CC2 [Compound P1.15]	> 80%	–	> 80%	–	≥ 80%	–	> 80%	–
CON1CCN2C(=O)C(c3c(Cl)cc(C)cc3Br)C(=O)N2CC1 [Compound P2.10]	–	–	> 80%	–	≥ 80%	–	> 80%	–
CON1CCn2c(OC(=O)C(C)(C)C)c(-c3c(C)cc(C)cc3C)c(=O)n2CC1 [Compound P1.1, 2,2-Dimethyl-propionic acid 3-methoxy-9-oxo-8-(2,4,6-trimethyl-phenyl)-2,3,4,5-tetrahydro-1H,9H-pyrazolo[1,2-a][1,2,5]triazepin-7-yl ester]	> 80%	–	> 80%	–	–	–	> 80%	> 80%
CCOC(=O)Oc1c(-c2c(C)cc(Br)cc2C)c(=O)n2n1CCN(OC)CC2 [Compound P1.10]	–	–	> 80%	> 80%	≥ 80%	> 80%	> 80%	–
CON1CCN2C(=O)C(c3c(C)ccc(-c4ccc(F)cc4)c3C)C(=O)N2CC1 [Compound P2.17]	–	–	> 80%	–	≥ 80%	–	> 80%	–
C#Cc1cc(C)cc(C)c1C1C(=O)N2CCN(OC)CCN2C1=O [Compound P2.5]	–	–	> 80%	–	≥ 80%	–	> 80%	–

Structure (SMILES)	mortality at 400 ppm [1]	mortality at 25 ppm [2]	mortality at 400 ppm [3]	mortality at 200 ppm [4]	mortality at 200 ppm [5]	mortality at 200 ppm [6]	mortality at 400 ppm [7]	mortality at 400 ppm [8]
C#Cc1cc(C)cc(C)c1-c1c(OC(=O)OCC)n2n(c1=O)CCN(OC)CC2 [Compound P1.5]	> 80%	–	> 80%	–	–	–	> 80%	–
CON1CCN2C(=O)C(c3cc(C)ccc3C)C(=O)N2CC1 [Compound P2.4, 8-(2,5-Dimethyl-phenyl)-3-methoxy-tetrahydro-pyrazolo[1,2-a][1,2,5]triazepine-7,9-dione]	–	–	–	–	–	–	> 80%	–
CCOC(=O)Oc1c(-c2cc(C)ccc2C)c(=O)n2n1CCN(OC)CC2 [Compound P1.4]	> 80%	–	–	–	≥ 80%	–	–	–
CCc1cc(C)cc(C)c1C1C(=O)N2CCN(OC)CCN2C1=O [Compound P2.14, 8-(2-Ethyl-4,6-dimethyl-phenyl)-3-methoxy-tetrahydro-pyrazolo[1,2-a][1,2,5]triazepine-7,9-dione]	> 80%	–	> 80%	–	≥ 80%	–	> 80%	–
C#Cc1cc(C)c(C2C(=O)N3CCN(OC)CCN3C2=O)c(C)c1 [Compound P2.8]	–	–	> 80%	–	–	–	–	> 80%
CON1CCN2C(=O)C(c3c(C)cc(Cl)cc3C)C(=O)N2CC1 [Compound P2.2, 8-(4-Chloro-2,6-dimethyl-phenyl)-3-methoxy-tetrahydro-pyrazolo[1,2-a][1,2,5]triazepine-7,9-dione]	> 80%	> 80%	> 80%	> 80%	≥ 80%	–	> 80%	–
CCOC(=O)Oc1c(-c2c(Cl)cc(C)cc2Br)c(=O)n2n1CCN(OC)CC2 [Compound P1.11]	–	–	–	–	≥ 80%	–	> 80%	–
CON1CCN2C(=O)C(c3c(C)cc(C)cc3Br)C(=O)N2CC1 [Compound P2.15]	> 80%	–	> 80%	–	≥ 80%	–	> 80%	–
C#Cc1cc(C)c(-c2c(OC(=O)OCC)n3n(c2=O)CCN(OC)CC3)c(C)c1 [Compound P1.8]	> 80%	–	> 80%	–	–	–	–	–
CCOC(=O)Oc1c(-c2c(C)ccc(-c3ccc(F)cc3)c2C)c(=O)n2n1CCN(OC)CC2 [Compound P1.17]	–	–	> 80%	–	≥ 80%	–	> 80%	> 80%
CCc1cc(C)cc(CC)c1-c1c(OC(=O)C(C)(C)C)n2n(c1=O)CCN(OC)CC2 [Compound P1.19]	–	–	> 80%	–	–	–	–	–
CCOC(=O)Oc1c(-c2c(C)cc(Cl)cc2C)c(=O)n2n1CCN(OC)CC2 [Compound P1.3]	> 80%	–	> 80%	> 80%	≥ 80%	–	> 80%	–
CON1CCN2C(=O)C(c3c(C)cc(Cl)cc3Br)C(=O)N2CC1 [Compound P2.11]	–	–	> 80%	–	≥ 80%	–	> 80%	–
CCOC(=O)Oc1c(-c2c(C)cc(C)cc2C)c(=O)n2n1CCN(OC)CC2 [Compound P1.2, Carbonic acid ethyl ester 3-methoxy-9-oxo-8-(2,4,6-trimethyl-phenyl)-2,3,4,5-tetrahydro-1H,9H-pyrazolo[1,2-a][1,2,5]triazepin-7-yl ester]	> 80%	> 80%	> 80%	> 80%	≥ 80%	–	> 80%	> 80%
CCOC(=O)Oc1c(-c2c(C)cc(Cl)cc2Br)c(=O)n2n1CCN(OC)CC2 [Compound P1.12]	–	–	> 80%	–	≥ 80%	–	–	–

Where two headings read alike, the source gives them in different places.
